## Ab-91 heavy chain CDR variants: yeast mating affinities

Data: MIT Lincoln Laboratory AlphaSeq set, Engelhart et al. 2022, doi:10.1038/s41597-022-01779-4, as distributed in FLAb.

All variants were tested on one target, the spike HR2 peptide PDVDLGDISGINAS (SARS-CoV-2).

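The parent was found by panning a naive human phage display library on the peptide. AAYL51 was designed without a model: most single CDR substitutions and a random sample of double and triple ones. The scFvs were displayed on barcoded MATa yeast, the peptide on MATalpha yeast. The frequency of each diploid, read from paired DNA barcodes, reflects how well the two displayed proteins bind. The ratio of observed to expected reads was calibrated, replicate by replicate, on BCL2-family standards whose Kd was known from biolayer interferometry. Each pool was mated in three replicate cultures.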

Parent: Ab-91, a human scFv built as VL, a 15-residue (Gly4Ser)3 linker, VH. Only the CDRs of the heavy chain vary.
VL: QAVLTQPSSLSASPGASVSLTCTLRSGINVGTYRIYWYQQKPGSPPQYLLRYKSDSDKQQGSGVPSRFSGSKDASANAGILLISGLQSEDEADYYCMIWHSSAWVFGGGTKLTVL
VH: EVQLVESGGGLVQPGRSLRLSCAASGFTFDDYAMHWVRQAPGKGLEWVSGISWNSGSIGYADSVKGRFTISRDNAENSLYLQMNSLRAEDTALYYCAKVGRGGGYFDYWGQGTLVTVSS

Sequences are complete VH domains. The read-out is the apparent dissociation constant on a log10 scale (nM): the lower, the stronger. Where no diploid with the target was found in that replicate, the entry reads "nd": below detection, most likely a poor binder, though not proof of it. For reference, the parent read 1.86 as the reference entry and 0.88 as a member of this library. As a blank, each scFv also met three strains without target: over library AAYL51, 21% of these pairings were detected, typically at 4.54 and seldom below 3.26. The control count says in how many pairings with the empty strains this scFv gave a signal.

For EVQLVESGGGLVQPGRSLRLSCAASGFTFDDYAMHWVRQAPGKGLEWVSGISWNSGSIGYADSVKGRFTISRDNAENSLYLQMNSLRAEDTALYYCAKVGRGGGYFVYWGQGTLVTVSS, the assay gave 4.06, nd, nd (controls 3 of 9).
For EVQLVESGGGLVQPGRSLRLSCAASGFTEDDYAMHWVRQAPGKGLEWVSGISWNSGSIGYEDSVKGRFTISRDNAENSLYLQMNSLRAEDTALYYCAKVGRGGGYFDYWGQGTLVTVSS, the assay gave nd, nd, nd (controls 3 of 9).
For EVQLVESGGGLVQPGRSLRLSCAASGFTFDDYAMHWVRQAPGKGLEWVSGISWNSGATGYADSVKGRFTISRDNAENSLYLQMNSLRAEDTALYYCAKVGQGGGYFDYWGQGTLVTVSS, the assay gave 0.95, 0.96, 0.31 (controls 4 of 9).
For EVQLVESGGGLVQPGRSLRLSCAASGFTWDDYAMHWVRQAPGKGLEWVSGMSWNSGSIGYADSVKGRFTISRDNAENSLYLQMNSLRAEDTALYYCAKVGRGPGYFDYWGQGTLVTVSS, the assay gave 4.76, 4.95, nd (controls 2 of 9).
For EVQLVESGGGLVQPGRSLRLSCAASRFTFWDYAMHWVRQAPGKGLEWVSGISWNSGSIGYADSVKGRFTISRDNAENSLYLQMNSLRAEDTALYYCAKVSRGGGYFDYWGQGTLVTVSS, the assay gave 5.04, 4.89, 4.56 (controls 7 of 9).
For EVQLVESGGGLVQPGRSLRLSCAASGFTFDDYAWHWVRQAPGKGLEWVSGISWNSGSIGYGASVKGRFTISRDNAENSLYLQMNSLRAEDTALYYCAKVGRGGGYFDYWGQGTLVTVSS, the assay gave nd, nd, nd (controls 2 of 9).
For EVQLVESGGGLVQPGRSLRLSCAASGFLFDDYAMAWVRQAPGKGLEWVSGISWNSGSIGYADSVKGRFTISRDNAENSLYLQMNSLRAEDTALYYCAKVGRGGGYFSYWGQGTLVTVSS, the assay gave nd, 4.42, nd (controls 1 of 9).
For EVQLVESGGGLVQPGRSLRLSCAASGFTFDDYAMHWVRQAPGKGLEWVSGISWNSGSPGYAVYVKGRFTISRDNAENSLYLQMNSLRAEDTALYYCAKVGRGGGYFDYWGQGTLVTVSS, the assay gave 5.34, 4.66, nd (controls 2 of 9).
For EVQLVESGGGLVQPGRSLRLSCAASGFTFDDYAMHWVRQAPGKGLEWVSGISWNSGSIGYADAVYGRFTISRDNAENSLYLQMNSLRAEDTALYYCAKVGRGTGYFDYWGQGTLVTVSS, the assay gave 2.61, 2.25, 2.51 (controls 2 of 9).
For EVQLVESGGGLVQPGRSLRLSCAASGFTFDDYAMHWVRQAPGKGLEWVSGISWNSCSIGYADSVKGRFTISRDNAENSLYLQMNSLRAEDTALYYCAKVGRGGGYFDYWGQGTLVTVSS, the assay gave 2.08, 2.61, 1.91 (controls 2 of 9).
For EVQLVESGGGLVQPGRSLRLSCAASGFTFDDYAMTWVRQAPGKGLEWVSGISRNSGSIGYADSVKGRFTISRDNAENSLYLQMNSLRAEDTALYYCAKVGIGGGYFDYWGQGTLVTVSS, the assay gave 3.13, nd, nd (controls 0 of 9).
For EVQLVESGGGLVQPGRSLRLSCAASGFTDDDYAMHWVRQAPGKGLEWVSGGSWNSGSIGYADSVKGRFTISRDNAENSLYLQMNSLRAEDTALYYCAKVGRGGHYFDYWGQGTLVTVSS, the assay gave nd, 4.69, 4.67 (controls 5 of 9).
For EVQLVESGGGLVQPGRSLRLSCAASGFQFDDYAMHWVRQAPGKGLEWVSGISWNSTSIGYADWVKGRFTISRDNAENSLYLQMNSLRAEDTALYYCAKVGRGGGYFDYWGQGTLVTVSS, the assay gave nd, nd, nd (controls 1 of 9).
For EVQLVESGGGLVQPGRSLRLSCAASGFTDDDYAMHWVRQAPGKGLEWVSGISWNSGSIGYGDSSKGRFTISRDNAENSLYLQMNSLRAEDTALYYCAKVGRGGGYFDYWGQGTLVTVSS, the assay gave 6.48, 4.34, nd (controls 3 of 9).
For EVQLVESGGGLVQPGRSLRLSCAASGFTFDMYAMMWVRQAPGKGLEWVSGISWNSGSIGYADSVKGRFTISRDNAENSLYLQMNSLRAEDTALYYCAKVGRGGGYFDYWGQGTLVTVSS, the assay gave nd, nd, nd (controls 0 of 9).
For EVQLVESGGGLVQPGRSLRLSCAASGFTFDDYAMHWVRQAPGKGLEWVSGIIWNSGSIGYADSVKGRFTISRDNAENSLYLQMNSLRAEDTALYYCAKVGRGGWYFDYWGQGTLVTVSS, the assay gave nd, 5.06, 4.83 (controls 1 of 9).
For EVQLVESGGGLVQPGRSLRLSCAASGFTFEDYAMHWVRQAPGKGLEWVSGISWNSGSIGYADSVKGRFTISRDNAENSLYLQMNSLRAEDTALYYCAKFGRGGGYFFYWGQGTLVTVSS, the assay gave nd, nd, nd (controls 0 of 9).
For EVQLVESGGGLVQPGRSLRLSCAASGFTFDDYAMHWVRQAPGKGLEWVSGICINSGSIGYADSVKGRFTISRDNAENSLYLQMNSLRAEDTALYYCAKVGRGGGFFDYWGQGTLVTVSS, the assay gave nd, nd, nd (controls 0 of 9).
For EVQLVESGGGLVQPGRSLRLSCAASGFTFDDYAMHWVRQAPGKGLEWVSGISWNKGSIGYTDSVKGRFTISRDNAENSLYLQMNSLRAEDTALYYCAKTGRGGGYFDYWGQGTLVTVSS, the assay gave nd, nd, nd (controls 1 of 9).
For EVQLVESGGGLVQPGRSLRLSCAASGFIRDDYAMHWVRQAPGKGLEWVSGISWNSGSIGYRDSVKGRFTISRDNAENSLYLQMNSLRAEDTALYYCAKVGRGGGYFDYWGQGTLVTVSS, the assay gave nd, 6.17, nd (controls 2 of 9).
For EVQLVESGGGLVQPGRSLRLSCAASGFTFDDYAMHWVRQAPGKGLEWVSGISWNSGSIGYADSVKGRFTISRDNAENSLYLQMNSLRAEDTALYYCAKVGRGGGHFDYWGQGTLVTVSS, the assay gave nd, nd, nd (controls 0 of 9).

Picked from the list: the 2 lowest averages where every replicate gave a value.

Variant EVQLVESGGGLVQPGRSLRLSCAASGFTFDDYAMHWVRQAPGKGLEWVSGISWNSGATGYADSVKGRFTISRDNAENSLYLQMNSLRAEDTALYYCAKVGQGGGYFDYWGQGTLVTVSS showed 0.95, 0.96, 0.31 (controls 4 of 9).
Variant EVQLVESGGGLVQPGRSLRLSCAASGFTFDDYAMHWVRQAPGKGLEWVSGISWNSCSIGYADSVKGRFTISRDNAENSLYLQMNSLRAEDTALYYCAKVGRGGGYFDYWGQGTLVTVSS showed 2.08, 2.61, 1.91 (controls 2 of 9).